Assay results published in patent publication US20240246946A1, “MODULATORS OF TREX1” (Constellation Pharmaceuticals, Inc., priority 2021, published 2024).

Protein sequences, listed by entry. Tags and fused reporters are not part of them.
UniProt Q91XB0, whole entry: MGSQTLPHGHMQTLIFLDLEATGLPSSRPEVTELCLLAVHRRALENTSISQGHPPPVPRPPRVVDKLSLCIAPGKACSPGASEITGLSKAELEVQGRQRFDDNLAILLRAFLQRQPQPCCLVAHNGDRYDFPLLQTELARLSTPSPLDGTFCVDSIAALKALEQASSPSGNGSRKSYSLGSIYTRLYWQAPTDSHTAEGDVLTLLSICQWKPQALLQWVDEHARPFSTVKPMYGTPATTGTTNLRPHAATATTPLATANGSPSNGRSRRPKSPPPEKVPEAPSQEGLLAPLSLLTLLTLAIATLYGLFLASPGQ
UniProt Q9NSU2, whole entry: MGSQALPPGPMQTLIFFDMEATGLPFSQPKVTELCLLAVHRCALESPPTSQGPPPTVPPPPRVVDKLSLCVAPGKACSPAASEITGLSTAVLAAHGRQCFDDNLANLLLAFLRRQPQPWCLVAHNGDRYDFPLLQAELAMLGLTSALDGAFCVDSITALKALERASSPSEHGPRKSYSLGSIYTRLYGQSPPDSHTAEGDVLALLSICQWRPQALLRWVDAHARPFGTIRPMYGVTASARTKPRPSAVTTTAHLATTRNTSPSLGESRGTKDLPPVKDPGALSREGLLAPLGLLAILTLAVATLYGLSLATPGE

Legend:
full length mouse TREX1 = full length mouse TREX1 (Mus musculus, UniProt Q91XB0); assay: mTREX1 Biochemical Assay (fluorescence, dsDNA substrate degradation); details: read-out: mTREX1 IC50
full length human TREX1 = full length human TREX1 (Homo sapiens, UniProt Q9NSU2); assay: hTREX1 Biochemical Assay (fluorescence, dsDNA substrate degradation); details: read-out: hTREX1 IC50

Q: How did the IC50 (full length mouse TREX1) turn out when COC(C)(C)Cn1cc(C(c2ccccc2Cl)C(C)c2nc(C(=O)Nc3cnoc3)c(O)c(=O)n2C)cn1 (single isomer, unassigned) was run?
A: > 10 nM

Q: What about the IC50 (full length human TREX1) of the same compound?
A: > 10 nM
